From patent US12644087B2, “Methods to generate polymer scaffolds having a gradient of crosslinking density” (The University of North Carolina at Chapel Hill, priority 2016, dated 2026)

Assays:
[1] = system: primary murine colonic epithelial cells; assay: Basal-to-apical and apical-to-basal transport across primary murine colonic epithelial cell monolayer on crosslinked collagen meshwork; type: in vitro ADME; conditions: day 5 of cell culture, TEER >2,000 Ω·cm^2
[2] = system: primary human small intestinal epithelial cells

permeability basal-to-apical relative to apical-to-basal [1]: ~7 fold
permeability of rhodamine 123 (basal-to-apical transport) [2]: 37.4±1.3 ×10^−8 cm·s^−1
permeability of rhodamine 123 relative to Lucifer yellow [2]: 15 times
Substance: rhodamine 123
